Experimental data as given in paper PMC12296705, “In Vivo and Bioinformatics Evaluation of Nine Traditional Chinese Medicine Compounds Targeting Acetylcholinesterase and Butyrylcholinesterase Enzymes in Alzheimer’s Disease” (Iranian Journal of Pharmaceutical Research : IJPR, 2025).

Sequences of proteins named here, by UniProt entry; tags and fusion partners are left off. Residues count along the entry.
UniProt P22303, 32-614: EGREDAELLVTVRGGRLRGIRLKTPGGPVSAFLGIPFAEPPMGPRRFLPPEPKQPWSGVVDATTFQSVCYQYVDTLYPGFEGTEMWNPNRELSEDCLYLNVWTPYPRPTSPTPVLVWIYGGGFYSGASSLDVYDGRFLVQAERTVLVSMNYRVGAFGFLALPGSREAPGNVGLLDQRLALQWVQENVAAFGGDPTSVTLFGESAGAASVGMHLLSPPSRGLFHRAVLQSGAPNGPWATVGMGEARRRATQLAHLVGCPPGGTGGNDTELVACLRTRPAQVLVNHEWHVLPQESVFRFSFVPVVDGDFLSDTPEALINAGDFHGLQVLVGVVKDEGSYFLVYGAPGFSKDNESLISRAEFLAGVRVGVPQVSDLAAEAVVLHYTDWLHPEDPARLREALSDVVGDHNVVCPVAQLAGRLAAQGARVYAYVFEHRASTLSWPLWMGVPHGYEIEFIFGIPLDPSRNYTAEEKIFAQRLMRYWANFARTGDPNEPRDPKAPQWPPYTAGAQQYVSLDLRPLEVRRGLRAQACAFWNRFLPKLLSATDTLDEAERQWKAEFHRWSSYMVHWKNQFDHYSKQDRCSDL
UniProt P06276, 29-602: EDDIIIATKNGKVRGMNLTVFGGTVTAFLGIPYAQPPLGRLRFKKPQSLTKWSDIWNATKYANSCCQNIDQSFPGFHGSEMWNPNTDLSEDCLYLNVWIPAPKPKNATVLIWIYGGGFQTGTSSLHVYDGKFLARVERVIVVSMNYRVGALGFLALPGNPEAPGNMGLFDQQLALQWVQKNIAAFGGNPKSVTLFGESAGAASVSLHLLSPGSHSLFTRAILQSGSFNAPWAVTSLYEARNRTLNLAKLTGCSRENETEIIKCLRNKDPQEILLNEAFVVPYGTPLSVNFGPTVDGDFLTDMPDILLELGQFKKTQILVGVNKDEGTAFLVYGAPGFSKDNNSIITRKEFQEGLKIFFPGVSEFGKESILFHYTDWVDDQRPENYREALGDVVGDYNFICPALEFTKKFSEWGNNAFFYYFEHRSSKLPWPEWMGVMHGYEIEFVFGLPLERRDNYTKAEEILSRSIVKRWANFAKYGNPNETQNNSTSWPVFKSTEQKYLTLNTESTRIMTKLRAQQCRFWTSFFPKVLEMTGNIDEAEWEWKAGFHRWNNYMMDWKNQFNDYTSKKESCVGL

Experiments:
[1] = target: T1, acetylcholinesterase (AChE) (Homo sapiens, UniProt P22303); format: biochemical; settings: mean ± SD, n = 3, each in triplicate
T1 construct: purchased bioassay systems, USA IACE-100
Method: (§1) The in vitro AChE and BuChE inhibitory effects and selectivity of nine TCM compounds were evaluated using the QuantiChrom^TM AChE inhibitor screening kit (IACE-100, bioassay systems, USA) for AChE inhibition and the BuChE activity kit (catalog # MBS846801, MyBiosource, CA, USA) for BuChE inhibition. […] The QuantiChrom^TM kit was used to assess the activity of AChE and BuChE by recording enzymatic activity at different concentrations of the test compounds and comparing it to activity without inhibitors, followed by plotting dose-response curves. The experimental data were fitted by nonlinear regression analysis to yield IC50 values. The selectivity of the compounds for AChE relative to BuChE was determined by calculating the Selectivity Index (SI) using the formula BuChE IC50 values are divided by AChE IC50 values to obtain SI.

[2] = target: T2, butyrylcholinesterase (BuChE) (Homo sapiens, UniProt P06276); format: biochemical; settings: read-out: IC50 BuChE; mean ± SD, n = 3, each in triplicate
T2 construct: purchased MyBiosource, CA, and USA MBS846801
Method: as §1

In the case of Asiaticoside, the IC50 [1] is reported as 71.1 ± 3.54 nM and the IC50 [2] is reported as 83.3 ± 3.14 nM.
